“And” between values parts separate entries of the source, which are not always exact repeats. Equal values may be shown once.

Consider 2 substances from patent US20130071390A1.

Holding throughout (test): FcγR ELISA
(An ELISA detects its analyte on a solid surface through an enzyme-linked reagent.)

The target of assay [1] is histidine-tagged extracellular domain of human Fc gamma receptor IIb/c (Pichia pastoris produced) (human) (UniProt P31994).
Assay [2] deals with FcγRIIIa-V158 (Pichia pastoris produced) (UniProt P08637).
The target in assay [3] is FcγRIIa extracellular domain (Pichia pastoris produced) (human) (UniProt P12318).
The target of assay [4] is FcγRIIIa-F158 (Pichia pastoris produced) (UniProt P08637).

In the case of “anti-TNF IgG1 wildtype antibody (GFI774) produced in GFI 5.0”, the fold increase in affinity vs commercial HUMIRA in assay [1] was 2 fold; in assay [2], 1.8 fold and 2 fold.

Turning to “anti-TNF IgG1 wildtype antibody (GFI774) produced in GFI 5.0 (antibody; other documents disagree on this pair)”, the fold increase in affinity vs commercial HUMIRA in assay [3] was 30 fold; in assay [4] it was 13 fold and 15 fold.
